The assay concerns the target Cbl-B (Homo sapiens, UniProt Q13191). Briefly: MSD-based assay for degradation of Cbl-B in THP-1 cells. It is filed as cell-based. As to conditions: Jurkat cells seeded (heading: THP-1 cells), 24 hours incubation, MSD readout, tested form: formate.

Amino acid sequences for entries named in this document (tags omitted).
UniProt Q13191, whole entry: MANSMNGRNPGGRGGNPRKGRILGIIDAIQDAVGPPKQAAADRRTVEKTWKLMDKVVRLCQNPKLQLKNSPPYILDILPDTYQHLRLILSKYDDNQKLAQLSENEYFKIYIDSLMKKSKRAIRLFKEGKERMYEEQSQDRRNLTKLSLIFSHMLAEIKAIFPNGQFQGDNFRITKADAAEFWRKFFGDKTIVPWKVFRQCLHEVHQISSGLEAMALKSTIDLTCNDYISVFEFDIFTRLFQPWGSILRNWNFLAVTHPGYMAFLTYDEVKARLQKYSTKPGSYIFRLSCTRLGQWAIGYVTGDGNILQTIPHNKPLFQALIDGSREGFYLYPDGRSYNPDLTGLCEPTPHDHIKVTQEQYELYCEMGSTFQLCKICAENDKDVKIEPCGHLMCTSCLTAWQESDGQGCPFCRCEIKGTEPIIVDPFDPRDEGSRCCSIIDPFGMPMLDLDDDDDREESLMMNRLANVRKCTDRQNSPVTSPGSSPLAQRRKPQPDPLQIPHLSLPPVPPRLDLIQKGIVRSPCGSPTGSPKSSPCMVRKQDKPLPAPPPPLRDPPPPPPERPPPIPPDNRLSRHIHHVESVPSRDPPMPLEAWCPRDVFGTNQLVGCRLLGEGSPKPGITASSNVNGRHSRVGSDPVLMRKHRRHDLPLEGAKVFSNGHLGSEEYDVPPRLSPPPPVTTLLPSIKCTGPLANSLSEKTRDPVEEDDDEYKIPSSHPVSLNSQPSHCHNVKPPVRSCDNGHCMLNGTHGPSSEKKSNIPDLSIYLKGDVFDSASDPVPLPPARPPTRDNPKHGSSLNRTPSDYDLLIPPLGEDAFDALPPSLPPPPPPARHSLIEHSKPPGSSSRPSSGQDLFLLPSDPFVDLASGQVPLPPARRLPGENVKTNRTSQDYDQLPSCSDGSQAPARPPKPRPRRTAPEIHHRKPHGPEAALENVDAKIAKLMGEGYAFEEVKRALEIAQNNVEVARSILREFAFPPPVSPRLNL

On to `Cn1cnnc1[C@@H](c1cccc(-n2cc3c(C(F)(F)F)cc(COCCCN4CCC(CN5CCN(c6ccc7c(c6)CN([C@@H]6CCC(=O)NC6=O)C7=O)CC5)CC4)cn3c2=O)c1)C1CCC1`, for which the DC50 was 30 to 300 nM and the Dmax entry is “B (70 > B >= 50)”.
Turning to `Cn1cnnc1CC1(c2cccc(-n3cc4c(C(F)(F)F)cc(CN5CCC(COCc6ccc(CN7CCN(c8cccc9c8C(=O)N(C8CCC(=O)NC8=O)C9=O)CC7)cc6)CC5)cn4c3=O)c2)COC1` (stereo not drawn), the DC50 is over 10000 nM and the Dmax result is listed as “D (30 > D)”.
Consider `CO[C@H]1C[C@](c2cccc(-n3cc4c(C(F)(F)F)cc(CN5CCC(CN(C)C(=O)c6ccc(N7CCN(c8ccc9c(c8)CN([C@H]8CCC(=O)NC8=O)C9=O)CC7)cc6)CC5)cn4c3=O)c2)(c2nncn2C)C1`, for which the DC50 lay in the range of 30 to 300 nM and the Dmax result is “B (70 > B >= 50)”.
For `Cn1cnnc1[C@@H](c1cccc(-n2cc3c(C(F)(F)F)cc(CN4CCC(OCCN5CCC(CN6CCCN(c7ccc8c(c7)CN(C7CCC(=O)NC7=O)C8=O)CC6)CC5)CC4)cn3c2=O)c1)C1CCC1` (stereo partly drawn) the same measures were 1000 to 10000 nM and “D (30 > D)”.
On to `Cn1cnnc1[C@@H](c1cccc(-n2cc3c(C(F)(F)F)cc(CNCCN4CCC(CN5CCN(c6ccc7c(c6)CN(C6CCC(=O)NC6=O)C7=O)CC5)CC4)cn3c2=O)c1)C1CCC1` (stereo partly drawn), for which the DC50 is over 10000 nM and the Dmax entry is listed as “D (30 > D)”.
Take `Cn1cnnc1CC1(c2cccc(N3Cc4c(cc(CN5CCC(OCCN6CCC(CN7CCN(c8ccc9c(c8)CN([C@@H]8CCC(=O)NC8=O)C9=O)CC7)CC6)CC5)cc4C(F)(F)F)C3=O)c2)COC1`: the DC50 was in the range of 300 to 1000 nM and the Dmax result is given as “B (70 > B >= 50)”.

Values taken from patent US20250340552A1, “COMPOUNDS, COMPOSITIONS AND METHODS OF TREATING DISORDERS” (HOTSPOT THERAPEUTICS, INC., priority 2022, published 2025).
